The results in this text go back to ChEMBL document CHEMBL1240295, “Specificity and mechanism of action of some commonly used protein kinase inhibitors” (Biochem J, 2000).

Each structure is given as a SMILES string.

The test addresses T1, MAP kinase-activated protein kinase 5 (Homo sapiens) (UniProt Q8IW41).
T1 sequence (whole entry): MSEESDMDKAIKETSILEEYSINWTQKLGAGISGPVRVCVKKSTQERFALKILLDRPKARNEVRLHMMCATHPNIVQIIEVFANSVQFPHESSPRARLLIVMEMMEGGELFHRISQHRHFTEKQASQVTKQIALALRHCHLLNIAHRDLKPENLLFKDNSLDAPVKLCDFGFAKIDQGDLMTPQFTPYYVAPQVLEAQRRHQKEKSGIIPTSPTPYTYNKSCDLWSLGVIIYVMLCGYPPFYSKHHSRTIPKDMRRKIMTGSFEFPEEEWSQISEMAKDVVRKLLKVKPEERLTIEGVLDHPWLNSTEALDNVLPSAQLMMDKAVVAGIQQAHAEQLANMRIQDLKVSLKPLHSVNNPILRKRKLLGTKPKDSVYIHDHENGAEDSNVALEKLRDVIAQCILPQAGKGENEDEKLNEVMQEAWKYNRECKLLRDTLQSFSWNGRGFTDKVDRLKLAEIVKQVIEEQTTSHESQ
The test can be described thus: Inhibition of His-tagged human PRAK expressed in Sf9 cells at 50 uM; values are per cent of control.

As for `COc1cccc(-c2cc(=O)c3ccccc3o2)c1N`, the residual activity was 108%.
